Patent US7304061B2, “Heterocyclic inhibitors of ERK2 and uses thereof” (Vertex Pharmaceuticals Incorporated, priority 2002, dated 2007)

Sequences of proteins named here, by UniProt entry; tags and fusion partners are left off.
UniProt P28482, whole entry: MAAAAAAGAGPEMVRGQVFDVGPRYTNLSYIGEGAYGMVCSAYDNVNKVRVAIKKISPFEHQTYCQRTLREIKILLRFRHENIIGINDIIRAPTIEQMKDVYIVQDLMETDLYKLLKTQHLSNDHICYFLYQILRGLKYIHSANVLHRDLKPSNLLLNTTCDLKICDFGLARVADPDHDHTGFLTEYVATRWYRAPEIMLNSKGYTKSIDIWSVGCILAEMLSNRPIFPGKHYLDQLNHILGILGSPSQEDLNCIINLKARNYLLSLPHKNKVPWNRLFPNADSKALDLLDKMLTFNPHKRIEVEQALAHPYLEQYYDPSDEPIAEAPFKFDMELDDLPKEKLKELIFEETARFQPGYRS

Molecular target: ERK2 (Homo sapiens, UniProt P28482)
Assay: ERK2 inhibition assay (spectrophotometric coupled-enzyme assay)
Settings: activated ERK2 10 nM, 65 μM ATP, 200 μM erktide peptide, 30° C., pH 7.5
Description: Compounds were assayed for the inhibition of ERK2 by a spectrophotometric coupled-enzyme assay (Fox et al (1998) Protein Sci 7, 2249). In this assay, a fixed concentration of activated ERK2 (10 nM) was incubated with various concentrations of the compound in DMSO (2.5%) for 10 min. at 30° C. in 0.1 M HEPES buffer, pH 7.5, containing 10 mM MgCl2, 2.5 mM phosphoenolpyruvate, 200 μM NADH, 150 μg/mL pyruvate kinase, 50 μg/mL lactate dehydrogenase, and 200 μM erktide peptide. The reaction was initiated by the addition of 65 μM ATP. The rate of decrease of absorbance at 340 nm was monitored. The Ki and IC50 were evaluated from the rate data as a function of inhibitor concentration.

IC50 | Ki | Compound
< 100 nM | – | Cc1cnc(-c2ccccc2)nc1-c1c[nH]c(C(=O)N[C@H](CO)c2ccccc2)c1 [Compound I-24, 4-(5-Methyl-2-phenyl-pyrimidin-4-yl)-1H-pyrrole-2 carboxylic acid (2-hydroxy-1-(S)-phenyl-ethyl)-amide]
– | > 1000 nM | Cc1cnc(N2CCOCC2)nc1-c1c[nH]c(C(=O)NCc2ccc3c(c2)OCO3)c1
> 1000 nM | – | Cc1cnc(O)nc1-c1c[nH]c(C(=O)N[C@H](CO)c2ccccc2)c1
– | > 1000 nM | O=C(NCc1cccc(C(F)(F)F)c1)c1cc(-c2nc(N3CCOCC3)ncc2-c2cc(Cl)cc(Cl)c2)c[nH]1
– | 100 to 1000 nM | Cc1cnc(N2CCOCC2)nc1-c1c[nH]c(C(=O)NCc2cccc(C(F)(F)F)c2)c1
– | > 1000 nM | O=C(NCc1ccc2c(c1)CCO2)c1cc(-c2nc(N3CCOCC3)ncc2-c2cc(Cl)cc(Cl)c2)c[nH]1
> 1000 nM | – | CSc1ncc(C)c(-c2c[nH]c(C(=O)NCc3ccc(F)c(F)c3)c2)n1
< 100 nM | – | Cc1cnc(Sc2ccccc2)nc1-c1c[nH]c(C(=O)N[C@H](CO)c2ccccc2)c1
– | > 1000 nM | O=C(N[C@H](CO)c1ccccc1)c1cc(-c2nc(N3CCOCC3)ncc2-c2cc(Cl)cc(Cl)c2)c[nH]1
> 1000 nM | – | CCCS(=O)(=O)c1ncc(C)c(-c2c[nH]c(C(=O)N[C@H](CO)c3ccccc3)c2)n1
< 100 nM | – | Cc1cnc(SC(C)C)nc1-c1c[nH]c(C(=O)N[C@H](CO)c2ccccc2)c1
– | < 100 nM | Cc1cnc(N2CCOCC2)nc1-c1c[nH]c(C(=O)NCc2cccc3ccccc23)c1
< 100 nM | – | Cc1cnc(C2CC2)nc1-c1c[nH]c(C(=O)N[C@H](CO)c2ccccc2)c1
< 100 nM | – | Cc1ccc(-c2ncc(C)c(-c3c[nH]c(C(=O)N[C@H](CO)c4ccccc4)c3)n2)cc1
< 100 nM | – | Cc1cnc(-c2cccnc2)nc1-c1c[nH]c(C(=O)N[C@H](CO)c2ccccc2)c1
< 100 nM | – | CCCSc1ncc(C)c(-c2c[nH]c(C(=O)N[C@H](CO)c3ccccc3)c2)n1
– | > 1000 nM | O=C(NCc1ccc2c(c1)OCO2)c1cc(-c2nc(N3CCOCC3)ncc2-c2cc(Cl)cc(Cl)c2)c[nH]1
– | 100 to 1000 nM | Cc1cnc(N2CCOCC2)nc1-c1c[nH]c(C(=O)NCc2ccc(F)c(F)c2)c1
< 100 nM | – | Cc1cnc(-c2ccc(C(N)=O)cc2)nc1-c1c[nH]c(C(=O)N[C@H](CO)c2ccccc2)c1
– | < 100 nM | Cc1ncc(C)c(-c2c[nH]c(C(=O)N[C@H](CO)c3ccccc3)c2)n1
